Assay results published in patent publication US8283373B2, “Inhibitors of cytosolic phospholipase A2” (Pfizer Inc., priority 2005, dated 2012).

Assay: Drug exposure in ApoE KO mice fed supplemented chow
Type: in vivo, mouse
Conditions: chow supplemented at 1.3 mg/g
Procedure: Six week old male ApoE KO mice were treated with 4-{3-[1-benzhydryl-5-chloro-2-(2-{[(3,4-dichlorobenzyl)sulfonyl]amino}ethyl)-1H-indol-3-yl]propyl}benzoic acid (Compound C). Mice were fed a normal chow diet supplemented with Compound C at 1.3 mg/g and 3.3 mg/g (resulting in ˜250 ng/mL and ˜500 ng/mL maximum drug exposure, respectively) or vehicle for 20 weeks.

maximum drug exposure: ~250 ng/mL
SMILES: O=C(O)c1ccc(CCCc2c(CCNS(=O)(=O)Cc3ccc(Cl)c(Cl)c3)n(C(c3ccccc3)c3ccccc3)c3ccc(Cl)cc23)cc1 [Compound C, 4-{3-[1-benzhydryl-5-chloro-2-(2-{[(3,4-dichlorobenzyl)sulfonyl]amino}ethyl)-1H-indol-3-yl]propyl}benzoic acid]
